Where two headings read alike, the source gives them in different places.
Experiments:
[1] = Current platform (10/5/5 DCM/methanol/water ratio)
[2] = Literature (10/6/4 DCM/methanol/water ratio); cited from earlier work

## COc1cc(C(=O)O)ccc1O [Vanillic Acid, Vanillic acid]
[1]
  αx/pHBA (selectivity): 2.77
[2]
  αx/pHBA (selectivity): 2.21

— patent US20250361219A1, “SYSTEMS AND METHODS FOR SEPARATION OF CHEMICAL SPECIES, SUCH AS CANNABINOIDS, USING MULTIPLE LIQUID PHASES” (priority 2022, published 2025)
